Data published in patent US12091776B2, “Protease activity profiling via programmable phage display of comprehensive proteome-scale peptide libraries” (THE JOHNS HOPKINS UNIVERSITY, priority 2019, dated 2024).

B1: AGLGRAGDSAVLVLPPSPGPRSSRPSMDSEGGSLLLDEDSEVFKMLQENREGRAAPRQSSSFRLLQEALEAEERGGTPAFLPSSLSPQSS (protein, listed as Homo sapiens)
chain: AGLGRAGDSAVLVLPPSPGPRSSRPSMDSEGGSLLLDEDSEVFKMLQENREGRAAPRQSSSFRLLQEALEAEERGGTPAFLPSSLSPQSS
B2: MSDIEEVVEEYEEEEQEEAAVEEQEEAAEEDAEAEAETEETRAEEDEEEEEAKEAEDGPMEESKPKPRSFMPNLVPPKIPDGERVDFDDI (protein, listed as Homo sapiens)
chain: MSDIEEVVEEYEEEEQEEAAVEEQEEAAEEDAEAEAETEETRAEEDEEEEEAKEAEDGPMEESKPKPRSFMPNLVPPKIPDGERVDFDDI
B3: … (protein, listed as Homo sapiens)
chain: LLPRSAGRPDPQSQLPERTGAEWNPPLSFSLASRGLSGQYVTLDNRSGELHTSAQEIDREALCVEGGGGTAWSGSVSISSSPSDSCLLLL
B4: … (protein, listed as Homo sapiens)
chain: LGRLQGQPLRDGEEVVLLLEGIHREPSHAGPLDFSCNAGKSCPRADVTLEEKGCASQVPSHSPKKELPAEEPSVLGPSDEPPRPQPRAAQ
B5: MLQKPRNRGRSGGQAERDRDWSHSGNPGASRAGEDARVLRDGFAEEAPSTSRGPGGSQGSQGPSPQGARRAQAAPAVGPRSQKQLELKVS (protein, listed as Homo sapiens)
chain: MLQKPRNRGRSGGQAERDRDWSHSGNPGASRAGEDARVLRDGFAEEAPSTSRGPGGSQGSQGPSPQGARRAQAAPAVGPRSQKQLELKVS
B6: … (protein, listed as Homo sapiens)
chain: DSSKPIVRESWMTELPPEMKDFGLGPRTFKRRADDTSGDRSIWTDTPADRERKAKETQEARKSSSKKDEEHILSGRDKRLAEQVSSYNES
B7: PVTPQPRSISGPSVGVMEMRSPLLAGGSPPQPVVPAHKDKSGAPPVRSIYDDISSPGLGSTPLTSRRQPNISVMQSPLVGVTSTPGTGQS (protein, listed as Homo sapiens)
chain: PVTPQPRSISGPSVGVMEMRSPLLAGGSPPQPVVPAHKDKSGAPPVRSIYDDISSPGLGSTPLTSRRQPNISVMQSPLVGVTSTPGTGQS
B8: MSDIEEVVEEYEEEEQEEQEEAAEEDAEAEAETEETRAEEDEEEEEAKEAEDGPMEESKPKPRSFMPNLVPPKIPDGERVDFDDIHRKRM (protein, listed as Homo sapiens)
chain: MSDIEEVVEEYEEEEQEEQEEAAEEDAEAEAETEETRAEEDEEEEEAKEAEDGPMEESKPKPRSFMPNLVPPKIPDGERVDFDDIHRKRM
B9: VEVWIGMTIEELARAMEKNTDYVYEALLNTDIDIDSLEADSHLDEVWIKEVITKAGMKLKWSKLKQDKVRKNKDAVRRPQADPALLTPRS (protein, listed as Homo sapiens)
chain: VEVWIGMTIEELARAMEKNTDYVYEALLNTDIDIDSLEADSHLDEVWIKEVITKAGMKLKWSKLKQDKVRKNKDAVRRPQADPALLTPRS
B10: SELAQNKEELTPGAPQHQLPPVPGSPEPYPGQQAPGPEPSQPLLELTPRAPGSPRGQHEPSKPPPAGETVTGGFGAKKRKGSSQAPASK (protein, listed as Homo sapiens)
chain: SELAQNKEELTPGAPQHQLPPVPGSPEPYPGQQAPGPEPSQPLLELTPRAPGSPRGQHEPSKPPPAGETVTGGFGAKKRKGSSQAPASK
B11: AETEETRAEEDEEEEEAKEAEDGPMEESKPKPRSFMPNLVPPKIPDGERVDFDDIHRKRMEKDLNELQALIEAHFENRKKEEEELVSLKD (protein, listed as Homo sapiens)
chain: AETEETRAEEDEEEEEAKEAEDGPMEESKPKPRSFMPNLVPPKIPDGERVDFDDIHRKRMEKDLNELQALIEAHFENRKKEEEELVSLKD
B12: MSDIEEVVEEYEEEEQEEAAVEEEEDWREDEDEQEEAAEEDAEAEAETEETRAEEDEEEEEAKEAEDGPMEESKPKPRSFMPNLVPPKIP (protein, listed as Homo sapiens)
chain: MSDIEEVVEEYEEEEQEEAAVEEEEDWREDEDEQEEAAEEDAEAEAETEETRAEEDEEEEEAKEAEDGPMEESKPKPRSFMPNLVPPKIP
B13: PRAHPAPSMGSLRNEFWFSDGSLSDKSKCADPGLMPLPDTATGLDWTHLVDAARAFEGLDSDEELGLLCHHTSYLDQRVASFCTLTDMQH (protein, listed as Homo sapiens)
chain: PRAHPAPSMGSLRNEFWFSDGSLSDKSKCADPGLMPLPDTATGLDWTHLVDAARAFEGLDSDEELGLLCHHTSYLDQRVASFCTLTDMQH
B14: MGQQVGRVGEAPGLQQPQPRGIRGSSAARPSGRRRDPAGRTTETGFNIFTQHDHFASCVEDGFEGDKTGGSSPEALBRPYGCDVEPQALN (protein, listed as Homo sapiens)
chain: MGQQVGRVGEAPGLQQPQPRGIRGSSAARPSGRRRDPAGRTTETGFNIFTQHDHFASCVEDGFEGDKTGGSSPEALHRPYGCDVEPQALN
B15: SSALSGSGISRMQRPSSEAQMRMVASSEVDTRMSLERDQAKSETPRVWPRSTRSTVGGAGTSWHREMLPSRPEDHPQTHLHAVKSSAATA (protein, listed as Homo sapiens)
chain: SSALSGSGISRMQRPSSEAQMRMVASSEVDTRMSLERDQAKSETPRVWPRSTRSTVGGAGTSWHREMLPSRPEDHPQTHLHAVKSSAATA
B16: SLEALGMPRAYRLPSSFERVPCQTESSGPVPTIDRAGTEFDMAAKHLQSQSTPQAQARSKGSVALMNEKQKPHLQGSELRTEKLLSEGL (protein, listed as Homo sapiens)
chain: SLEALGMPRAYRLPSSFERVPCQTESSGPVPTIDRAGTEFDMAAKHLQSQSTPQAQARSKGSVALMNEKQKPHLQGSELRTEKLLSEGL
B17: MVQLRPRASRAPASAEAMVDEGQLASEEEEAEHGLLLGQPSSGAAAEPLEEDEEGDDEFDDEAPEELTFASAQAEAREEERRVRETVRRD (protein, listed as Homo sapiens)
chain: MVQLRPRASRAPASAEAMVDEGQLASEEEEAEHGLLLGQPSSGAAAEPLEEDEEGDDEFDDEAPEELTFASAQAEAREEERRVRETVRRD
B18: … (protein, listed as Homo sapiens)
chain: ATFIRDGYNNVPSVGSLADPDYLNTPQMNTPVTLNSAAPASNSGAGVLPSPATPRFSVPTPRTPRTPRTPRGGGTASGQGSVKYDSTDQG

Target: T1, Thrombin (Homo sapiens, UniProt P00734)
T1 construct: Thrombin (a serine protease); purchased SignalChem
Assay: SEPARATE assay: human peptidome library digest with Thrombin
Assay type: biochemical
Conditions: top 20 enriched peptides, human library (90-aa tiles); digest vs mock digest
Protocol: Streptavidin-coupled magnetic beads (Dynabeads M-280 Streptavidin, ThermoFisher Scientific) were washed (TBS, pH 7.4, 0.01% NP40) and resuspended in binding buffer (TBS, pH 7.4, 0.001% NP40) containing 2E9 plaque forming units per 10 μl of bead slurry. End-over-end mixing at room temperature was performed for one hour. Phage-coated beads were washed three times with wash buffer and transferred into two protein LoBind Eppendorf tubes blocked with TBS, pH 7.4 containing 1% BSA.
Protease digestions was performed in 50 μl of appropriate buffer alone or containing the protease: (a) Caspase-1/PreScission: 1×TBS, pH 7.4, 0.01% NP40, 1 mM DTT; (b) Thrombin: TBS, pH 7.4, 0.01% NP40; (c) ADAM17: Tris, pH 8.0, ZnCl2 2.5 uM, 0.005% Tween 20. Digestion occurred overnight at room temperature with end-over-end rotation. Digest reactions were quenched by addition of 100 μl TBS, pH 7.4, 0.01% NP40 containing AEBSF (2 mM), Aprotinin (0.3 μM), Bestatin (116 μM), E-64 (14 μM), Leupeptin (1 μM), and EDTA (1 mM) for thirty minutes at room temperature. To remove any residual biotinylated phage that may have been nonspecifically released, the 150 μl supernatant of the quenched digest reaction is then incubated with a fresh 10 μl of slurry volume M280 streptavidin beads (pre-washed three times with wash buffer) in a LoBind Eppendorf tube blocked with TBS, pH 7.4 containing 1% BSA at room temperature for one hour with end-over-end rotation.
10 μl slurry volume of protein G magnetic dynabeads were washed in buffer (TBS, pH 7.4, 0.01% NP40) and then resuspended in 50 μl TBS, pH 7.4, 0.01% NP40 containing 4 μg of M2 FLAG antibody for thirty minutes at room temperature with end-over-end rotation. The 150 μl quenched digest reaction is added to the 10 μl FLAG-coated Protein G beads and incubated for 60 minutes at room temperature with end-over-end rotation to capture phage particles released at the protease digest step. Beads are rinsed once with 100 μl wash buffer and stored at −80° C. until PCR amplification.
Library PCR preparation, high-throughput DNA sequencing, and peptide read count data generation was performed as described previously.^44 Briefly, library peptide inserts are amplified by resuspending 10 μl of FLAG-coated Protein G beads in PCR1 master mix containing the T7-Pep2_PCR1_F forward primer ([…]) (SEQ ID NO:3) and a T7-SEPARATE vector specific reverse primer ([…]) (SEQ ID NO:4), which includes an adapter sequence for sample-specific barcoding and Illumina P7 adapter incorporation during a subsequent PCR2 reaction. The PCR2 amplicons are pooled and sequenced using an Illumina NextSeq instrument in standard output mode to obtain single-end 50 nucleotide reads. Dual indexed sample demultiplexing and clonal read count determination were performed using exact sequence matching. […] To calculate the normalization factor, 100 peptides were randomly selected from the mock digest conditions with a read count ranging between 10 and 40. The median read count value for these 100 peptides is calculated for each sample. The random peptide selection and median calculation is performed 20 times and the average of the 20 median values is calculated for each sample. Finally, the normalization factor is calculated by dividing the average median value for each sample by that for one of the mock digest conditions. Read counts are then converted to normalized read counts by dividing each sample's read count values by the normalization factor. Fold enrichments are calculated for each peptide by dividing their normalized read counts in the digest condition by the normalized read counts in the mock digest condition. The fold enrichments can be visualized in an MA plot by transforming the normalized read count data into a log ratio (M, on the y-axis) and a mean average (A, on the x-axis) between the digest and mock digest conditions.

Molecule | Thrombi Fold Change
B1 | 10.76 fold
B2 | 10.44 fold
B3 | 11.53 fold
B4 | 10.92 fold
B5 | 12.49 fold
B6 | 11.22 fold
B7 | 12.05 fold
B8 | 11.56 fold
B9 | 12.32 fold
B10 | 10.90 fold
B11 | 19.08 fold
B12 | 17.66 fold
B13 | 14.27 fold
B14 | 11.16 fold
B15 | 15.43 fold
B16 | 10.68 fold
B17 | 15.07 fold
B18 | 10.80 fold
